Literature values, collected in article PMC3065546 (Pain, 2011).

Sequences of proteins named here, by UniProt entry; tags and fusion partners are left off.
UniProt P33261, whole entry: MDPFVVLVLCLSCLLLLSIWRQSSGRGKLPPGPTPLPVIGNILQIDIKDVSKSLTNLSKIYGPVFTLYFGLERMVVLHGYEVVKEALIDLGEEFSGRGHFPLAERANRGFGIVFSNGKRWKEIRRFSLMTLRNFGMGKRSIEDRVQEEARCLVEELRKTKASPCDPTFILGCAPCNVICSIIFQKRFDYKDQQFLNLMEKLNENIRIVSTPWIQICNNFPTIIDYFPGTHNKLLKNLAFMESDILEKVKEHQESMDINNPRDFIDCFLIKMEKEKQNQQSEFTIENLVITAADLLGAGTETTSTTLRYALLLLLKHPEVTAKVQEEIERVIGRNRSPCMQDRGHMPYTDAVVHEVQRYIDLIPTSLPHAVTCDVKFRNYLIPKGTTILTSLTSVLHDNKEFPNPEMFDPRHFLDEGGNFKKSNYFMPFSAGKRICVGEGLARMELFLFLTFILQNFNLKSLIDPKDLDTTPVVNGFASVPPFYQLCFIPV

Target: cDNA-expressed human CYP2C19 (Homo sapiens, UniProt P33261)
Details: read-out: Ki CYP2C19; cited from earlier work

SMILES: OC(Cn1cncn1)(Cn1cncn1)c1ccc(F)cc1F [Fluconazole, fluconazole]
- Ki: 1.05 µM
